# Like-named read-outs stand apart in the source and are kept apart here.
# Amino acid sequences for entries named in this document (tags omitted).
# UniProt P51531, whole entry: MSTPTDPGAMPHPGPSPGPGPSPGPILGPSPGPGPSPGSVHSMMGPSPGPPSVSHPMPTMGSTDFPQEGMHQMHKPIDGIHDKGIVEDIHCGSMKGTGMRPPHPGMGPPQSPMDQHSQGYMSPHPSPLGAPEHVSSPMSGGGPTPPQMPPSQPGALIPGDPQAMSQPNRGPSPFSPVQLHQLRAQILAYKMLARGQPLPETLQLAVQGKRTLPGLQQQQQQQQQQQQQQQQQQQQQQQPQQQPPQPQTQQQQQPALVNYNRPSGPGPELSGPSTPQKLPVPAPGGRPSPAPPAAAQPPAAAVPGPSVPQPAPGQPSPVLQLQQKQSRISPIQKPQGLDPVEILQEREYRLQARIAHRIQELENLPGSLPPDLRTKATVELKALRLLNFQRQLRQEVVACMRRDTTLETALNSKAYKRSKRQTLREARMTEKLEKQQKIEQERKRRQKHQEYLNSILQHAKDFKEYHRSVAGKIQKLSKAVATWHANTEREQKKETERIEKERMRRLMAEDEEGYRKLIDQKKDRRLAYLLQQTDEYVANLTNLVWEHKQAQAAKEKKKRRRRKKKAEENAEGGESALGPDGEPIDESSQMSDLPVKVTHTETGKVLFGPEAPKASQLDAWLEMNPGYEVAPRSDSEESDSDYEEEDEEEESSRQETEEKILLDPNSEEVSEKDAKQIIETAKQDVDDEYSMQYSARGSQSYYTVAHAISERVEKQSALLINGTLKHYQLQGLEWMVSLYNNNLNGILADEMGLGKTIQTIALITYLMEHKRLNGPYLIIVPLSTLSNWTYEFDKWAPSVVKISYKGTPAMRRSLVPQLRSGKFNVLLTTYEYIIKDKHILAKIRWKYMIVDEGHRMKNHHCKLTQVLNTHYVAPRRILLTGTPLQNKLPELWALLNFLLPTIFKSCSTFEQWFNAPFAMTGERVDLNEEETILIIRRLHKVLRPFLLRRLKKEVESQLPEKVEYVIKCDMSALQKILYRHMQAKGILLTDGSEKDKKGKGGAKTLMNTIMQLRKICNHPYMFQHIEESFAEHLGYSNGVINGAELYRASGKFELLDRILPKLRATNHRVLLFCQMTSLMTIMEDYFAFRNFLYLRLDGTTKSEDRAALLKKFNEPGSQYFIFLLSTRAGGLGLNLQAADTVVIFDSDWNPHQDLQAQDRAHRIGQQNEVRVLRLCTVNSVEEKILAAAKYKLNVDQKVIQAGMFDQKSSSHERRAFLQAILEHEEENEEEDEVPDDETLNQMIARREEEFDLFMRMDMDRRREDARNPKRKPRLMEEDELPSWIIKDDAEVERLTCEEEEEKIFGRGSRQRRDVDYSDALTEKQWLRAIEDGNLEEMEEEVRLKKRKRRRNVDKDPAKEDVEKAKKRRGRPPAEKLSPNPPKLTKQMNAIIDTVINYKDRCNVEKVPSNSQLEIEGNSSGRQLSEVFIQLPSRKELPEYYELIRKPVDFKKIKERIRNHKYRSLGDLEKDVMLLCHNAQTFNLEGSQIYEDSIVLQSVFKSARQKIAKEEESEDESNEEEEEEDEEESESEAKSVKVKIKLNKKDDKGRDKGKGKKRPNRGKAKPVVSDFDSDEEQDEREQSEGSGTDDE
# UniProt P51532, whole entry: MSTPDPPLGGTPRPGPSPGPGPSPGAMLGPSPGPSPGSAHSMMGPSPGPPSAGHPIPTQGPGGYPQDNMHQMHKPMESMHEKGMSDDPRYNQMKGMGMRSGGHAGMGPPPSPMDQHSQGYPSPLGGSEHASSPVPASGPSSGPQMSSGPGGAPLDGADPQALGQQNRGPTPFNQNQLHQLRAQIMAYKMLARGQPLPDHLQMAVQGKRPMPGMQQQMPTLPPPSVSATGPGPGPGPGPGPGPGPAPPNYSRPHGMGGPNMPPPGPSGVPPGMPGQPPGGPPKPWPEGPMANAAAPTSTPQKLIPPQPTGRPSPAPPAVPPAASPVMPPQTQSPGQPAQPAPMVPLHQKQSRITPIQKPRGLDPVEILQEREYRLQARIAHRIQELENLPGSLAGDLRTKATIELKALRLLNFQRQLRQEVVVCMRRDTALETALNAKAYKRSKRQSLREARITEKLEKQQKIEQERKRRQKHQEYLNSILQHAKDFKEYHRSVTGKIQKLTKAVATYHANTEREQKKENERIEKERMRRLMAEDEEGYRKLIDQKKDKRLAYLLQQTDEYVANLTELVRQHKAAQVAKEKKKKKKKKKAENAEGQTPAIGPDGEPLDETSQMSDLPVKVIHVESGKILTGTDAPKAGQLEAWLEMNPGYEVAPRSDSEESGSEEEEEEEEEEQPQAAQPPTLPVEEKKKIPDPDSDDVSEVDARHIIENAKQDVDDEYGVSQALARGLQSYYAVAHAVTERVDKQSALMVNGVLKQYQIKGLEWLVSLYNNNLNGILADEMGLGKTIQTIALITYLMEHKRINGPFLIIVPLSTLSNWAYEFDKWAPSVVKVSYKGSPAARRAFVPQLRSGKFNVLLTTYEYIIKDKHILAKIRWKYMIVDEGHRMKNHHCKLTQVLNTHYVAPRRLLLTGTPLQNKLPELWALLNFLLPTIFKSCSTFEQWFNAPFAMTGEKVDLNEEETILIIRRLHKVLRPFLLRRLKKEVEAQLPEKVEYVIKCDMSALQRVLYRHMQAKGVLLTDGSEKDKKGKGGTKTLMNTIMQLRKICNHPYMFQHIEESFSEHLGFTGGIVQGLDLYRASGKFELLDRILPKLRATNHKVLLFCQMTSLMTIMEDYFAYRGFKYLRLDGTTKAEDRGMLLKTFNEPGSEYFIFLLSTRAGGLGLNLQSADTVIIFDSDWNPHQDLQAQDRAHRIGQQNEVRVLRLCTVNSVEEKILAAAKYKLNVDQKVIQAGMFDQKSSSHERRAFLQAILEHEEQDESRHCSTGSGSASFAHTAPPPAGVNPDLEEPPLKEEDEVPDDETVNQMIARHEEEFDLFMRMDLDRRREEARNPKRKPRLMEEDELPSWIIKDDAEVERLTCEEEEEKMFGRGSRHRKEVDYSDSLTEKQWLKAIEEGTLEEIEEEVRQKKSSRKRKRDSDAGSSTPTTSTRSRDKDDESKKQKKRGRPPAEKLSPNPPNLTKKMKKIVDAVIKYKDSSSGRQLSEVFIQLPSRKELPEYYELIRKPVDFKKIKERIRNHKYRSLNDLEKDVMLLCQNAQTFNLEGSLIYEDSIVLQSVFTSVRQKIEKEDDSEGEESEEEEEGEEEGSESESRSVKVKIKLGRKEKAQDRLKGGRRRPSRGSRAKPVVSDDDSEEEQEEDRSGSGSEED
# Legend:
# BRM = BRM (Homo sapiens, UniProt P51531); assay: ATPase catalytic activity of BRM, ADP-Glo in vitro biochemical assay
# BRG-1 = BRG-1 (Homo sapiens, UniProt P51532); assay: ATPase catalytic activity of BRG-1, ADP-Glo in vitro biochemical assay
# [1] = read-out: BRM IP50, 30 nM BRM, 400 μM ATP
# [2] = read-out: BRG1 IP50, 30 nM BRG-1, 400 μM ATP
# [3] = read-out: BRM IP50 (μM)*, 30 nM BRM, 400 μM ATP
# [4] = read-out: BRG1 IP50 (μM)*, 30 nM BRG-1, 400 μM ATP
IC50 (BRM; [1]) [µM],IC50 (BRG-1; [2]) [µM],IC50 (BRM; [3]) [µM],IC50 (BRG-1; [4]) [µM],Structure (SMILES)
> 0.01,> 0.01,,,CS(=O)(=O)n1ccc(C(=O)NCC(=O)Nc2nc(-c3cccc(C45CCOCC4C5)c3)cs2)c1 (stereo not shown) [Compound 743]
> 0.01,> 0.01,,,CN1CCc2ccc(-c3csc(NC(=O)CNC(=O)c4ccn(S(C)(=O)=O)c4)n3)nc21
> 0.01,> 0.01,,,CS(=O)(=O)n1ccc(C(=O)NCC(=O)Nc2nc(-c3ccc(F)c(OC4CC4)c3)cs2)c1
> 0.1,> 0.1,,,COC[C@H](NC(=O)c1ccn(S(C)(=O)=O)c1)C(=O)Nc1nc(-c2cccc([C@@H]3CC3(F)F)n2)cs1
,,> 0.01,> 0.01,CS(=O)(=O)n1ccc(C(=O)NCC(=O)Nc2nc(-c3cccc(OCCC(F)(F)F)c3)cs2)c1
,,< 0.01,> 0.01,C[C@@H]1CN(c2cccc(-c3csc(NC(=O)[C@H](C)NC(=O)c4ccn(S(C)(=O)=O)c4)n3)c2)C[C@H](C)O1
> 0.01,> 0.01,,,CN1C(=O)CCc2ccc(-c3csc(NC(=O)CNC(=O)c4ccn(S(C)(=O)=O)c4)n3)cc21
> 0.01,> 0.01,,,CN1c2cc(-c3csc(NC(=O)CNC(=O)c4ccn(S(C)(=O)=O)c4)n3)ccc2CC1(C)C
> 0.01,> 0.01,,,CS(=O)(=O)n1ccc(C(=O)NCC(=O)Nc2nc(-c3cc(F)c4c(c3F)OCC4)cs2)c1
> 0.01,> 0.01,,,CS(=O)(=O)n1ccc(C(=O)NCC(=O)Nc2nc(-c3cccc(OC4CC4)c3F)cs2)c1
,,> 0.01,> 0.01,COCCOc1cccc(-c2csc(NC(=O)CNC(=O)c3ccn(S(C)(=O)=O)c3)n2)c1
,,> 0.1,> 0.1,CS(=O)(=O)n1ccc(C(=O)NCC(=O)Nc2nc(-c3cccc(N4CC(CN5CCOCC5)C4)c3)cs2)c1
> 0.01,> 0.01,,,CN1CCc2cc(-c3csc(NC(=O)CNC(=O)c4ccn(S(C)(=O)=O)c4)n3)cc(F)c21
,,> 0.01,> 0.01,CC(C)(O)COc1cccc(-c2csc(NC(=O)CNC(=O)c3ccn(S(C)(=O)=O)c3)n2)c1
> 0.01,> 0.01,,,COC[C@H](NC(=O)c1ccn(S(C)(=O)=O)c1)C(=O)Nc1nc(-c2cccc(OC3CC3)c2)cs1
> 0.01,> 0.1,,,COC[C@H](NC(=O)c1ccn(S(C)(=O)=O)c1)C(=O)Nc1nc(-c2cccc(OC(F)(F)F)c2F)cs1
> 0.01,> 0.1,,,COC1CC(c2ccc(-c3csc(NC(=O)CNC(=O)c4ccn(S(C)(=O)=O)c4)n3)cc2)C1 (stereo not shown)
> 0.1,> 0.1,,,CC1(C)CN(c2cccc(-c3csc(NC(=O)CNC(=O)c4ccn(C5(C)COC5)c4)n3)n2)CCC1O (stereo not shown)
> 0.01,> 0.01,,,CO[C@H](C)[C@H](NC(=O)c1ccn(S(C)(=O)=O)c1)C(=O)Nc1nc(-c2cccc(N3C[C@@H](C)O[C@@H](C)C3)n2)cs1
> 0.01,> 0.01,,,Cn1ccc(-c2cccc(-c3csc(NC(=O)CNC(=O)c4ccn(C5(C#N)CC5)c4)n3)c2)c1

# Further lines, the compound ahead of its results:
Structure (SMILES),IC50 (BRM; [1]) [µM],IC50 (BRG-1; [2]) [µM],IC50 (BRM; [3]) [µM],IC50 (BRG-1; [4]) [µM]
C[C@@H]1CN(c2cccc(-c3csc(NC(=O)CNC(=O)c4ccn(C5(C#N)COC5)c4)n3)c2)C[C@H](C)O1,< 0.01,< 0.01,,
C[C@@H]1CN(c2cccc(-c3csc(NC(=O)[C@H](C)NC(=O)c4ccn(C5(C)COC5)n4)n3)n2)C[C@H](C)O1,> 0.1,> 0.1,,
Cc1nccc(-c2cccc(-c3csc(NC(=O)CNC(=O)c4ccn(C(C)(C)C)n4)n3)c2)n1,,,< 0.01,< 0.01
C[C@@H]1CN(c2cccc(-c3csc(NC(=O)CNC(=O)c4ccn(C(C)(C)CF)c4)n3)n2)C[C@H](C)O1,,,< 0.01,< 0.01
COC[C@H](NC(=O)c1ccn(S(C)(=O)=O)c1)C(=O)Nc1nc(-c2cncc(N3C[C@@H](C)O[C@@H](C)C3)c2)cs1,> 0.01,> 0.01,,
COC[C@H](NC(=O)c1ccn(S(C)(=O)=O)c1)C(=O)Nc1nc(-c2cc(Cl)cc(C3C[C@@H](C)O[C@@H](C)C3)n2)cs1 (stereo partly shown),< 0.01,< 0.01,,
C[C@@H]1CN(c2cccc(-c3csc(NC(=O)CNC(=O)c4ccn(C5(C)CC5)c4)n3)n2)C[C@H](C)O1 [Compound 333],,,> 0.01,> 0.1
C[C@@H]1CN(c2cccc(-c3csc(NC(=O)CNC(=O)c4ccn(C5(C)COC5)n4)n3)n2)C[C@H](C)O1,,,> 0.01,> 0.01
COC[C@H](NC(=O)c1ccn(C2(C#N)CC2)c1)C(=O)Nc1nc(-c2cccc(N3C[C@@H](C)O[C@@H](C)C3)c2)cs1,< 0.01,> 0.01,,
CN(C)CC1CN(c2cccc(-c3csc(NC(=O)CNC(=O)c4ccn(C(C)(C)C)c4)n3)n2)CCO1 (stereo not shown),> 0.1,> 0.1,,
CC(NC(=O)c1ccn(C(C)(C)C)c1)C(=O)Nc1nc(-c2ccc3ccn(C)c(=O)c3c2)cs1 (stereo not shown),> 0.01,> 0.01,,
COC[C@H](NC(=O)c1ccn(C2(C)COC2)c1)C(=O)Nc1nc(-c2ccc3ccn(C)c(=O)c3c2)cs1 [Compound 453],,,> 0.1,> 0.1
C[C@@H]1CN(c2cccc(-c3csc(NC(=O)CNC(=O)c4ccn(C(C)(C)CO)c4)n3)c2)C[C@H](C)O1,,,> 0.01,> 0.1
C[C@@H]1CN(c2nccc(-c3csc(NC(=O)CNC(=O)c4ccn(C(C)(C)C)n4)n3)n2)C[C@H](C)O1,,,> 0.01,> 0.01
Cn1ccc2ccc(-c3csc(NC(=O)CNC(=O)c4cn(C5(C#N)CC5)cn4)n3)nc2c1=O,> 0.1,> 0.1,,
